Protein sequences, listed by entry. Tags and fused reporters are not part of them.
UniProt P32300, whole entry, looked up: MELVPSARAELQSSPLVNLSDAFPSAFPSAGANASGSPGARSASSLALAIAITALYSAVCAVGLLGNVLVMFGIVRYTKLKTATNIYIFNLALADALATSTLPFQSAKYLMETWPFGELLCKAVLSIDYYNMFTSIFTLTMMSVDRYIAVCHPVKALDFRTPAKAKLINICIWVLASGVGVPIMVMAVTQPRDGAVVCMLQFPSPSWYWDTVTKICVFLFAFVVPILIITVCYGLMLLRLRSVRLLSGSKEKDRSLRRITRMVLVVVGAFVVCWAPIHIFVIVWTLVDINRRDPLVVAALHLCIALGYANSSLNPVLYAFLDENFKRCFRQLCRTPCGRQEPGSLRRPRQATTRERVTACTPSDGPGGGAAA
UniProt P33535, whole entry, looked up: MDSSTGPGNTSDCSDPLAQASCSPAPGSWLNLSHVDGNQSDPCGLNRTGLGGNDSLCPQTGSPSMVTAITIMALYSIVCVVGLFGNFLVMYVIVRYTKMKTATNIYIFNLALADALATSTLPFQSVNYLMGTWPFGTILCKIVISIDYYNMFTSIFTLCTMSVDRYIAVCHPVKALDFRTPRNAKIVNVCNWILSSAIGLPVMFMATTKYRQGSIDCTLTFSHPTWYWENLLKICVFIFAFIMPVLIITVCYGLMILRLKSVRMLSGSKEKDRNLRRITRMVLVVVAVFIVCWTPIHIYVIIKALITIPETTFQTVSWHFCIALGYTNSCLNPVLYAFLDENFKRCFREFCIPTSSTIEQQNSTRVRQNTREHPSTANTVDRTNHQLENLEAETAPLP

According to ChEMBL document CHEMBL1143388 (Bioorg Med Chem, 2009):

Tests used:
[1] = target: Delta-type opioid receptor (Mus musculus, UniProt P32300); assay: Binding affinity to mouse DOPR expressed in CHO cells; assay type: cell-based
In short: (§1)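 Competitive displacement of [3H]diprenorphine from membranes of CHO cells stably transfected with rat MOPR or mouse DOPR. Buffer: 50 mM Tris-HCl, pH 7.4, with 1 mM EGTA. Ki values were derived from inhibition curves. Each value is the mean of at least three independent experiments run in duplicate.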

Mu-type opioid receptor = Mu-type opioid receptor (Rattus norvegicus, UniProt P33535); assay: Binding affinity to rat MOPR expressed in CHO cells; assay type: cell-based; in short: as §1

`COC(=O)[C@@H]1C[C@H](OC(C)=O)C(=O)[C@H]2[C@@]1(C)CC[C@H]1C(=O)O[C@@H](c3ccoc3)C[C@]21C` was tested. Which Ki [1] did it give?
Its Ki is over 1 µM.

What about the Ki (Mu-type opioid receptor) of the same molecule?
Its Ki is over 1 µM.
